Reference: patent US8828401B2, “Cytotoxic peptides and antibody drug conjugates thereof” (Pfizer Inc., priority 2011, dated 2014)

Experiments:
[1] = system: N87 (gastric cancer); assay: In vitro cell assay, MTS cell viability 96 hours after treatment; format: cell-based; details: read-out: N87 GMEAN IC50, N87 cells; geometric mean; cytotoxic peptides
Protocol: (§1) Cells were treated with 3-fold serially diluted antibody-drug conjugates or free compounds (i.e., no antibody conjugated to the drug) in duplicate at 10 concentrations. Cell viability was determined by CellTiter 96® AQueous One Solution Cell Proliferation MTS Assay (Promega, Madison Wis.) 96 hours after treatment. Relative cell viability was determined as percentage of untreated control.

[2] = system: BT474 (breast cancer); assay: as above; format: cell-based; details: unconjugated antibody at equivalent antibody concentrations; HERCEPTIN® in vitro studies
Protocol: as §1

[3] = system: Her2+ MDAMB-361 DYT2 cell line; assay: In vivo MDAMB-361 DYT2 tumor xenograft model; set-up: species or system irradiated nude mice; details: unconjugated antibody at equivalent antibody concentrations; HERCEPTIN® in vivo studies
Protocol: In vivo efficacy studies of antibody-drug conjugates were performed with the Her2+MDAMB-361 DYT2 cell line. For efficacy studies, 10 million tumor cells in 50% matrigel were implanted subcutaneously into 6-8 week old irradiated nude mice. When the tumor sizes reached between 250-350 mm^3 drugs or vehicle were administered through bolus tail vein injection. Mice were injected with 1 mg/kg of antibody drug conjugates treated four times every four days (Q4dx4). Tumor volume is measured twice a week for the first 50 days and once weekly thereafter by a Caliper device and calculated with the following formula: Tumor volume=(length×width)/2. Results were compared across studies by normalizing the tumor regression of the drug-treated mice by dividing the tumor volume by the vehicle-treated tumor volume (T/C).
Six compounds were tested in the three different MDA-MB-361-DYT2 xenograft studies to determine their anti-tumor activity. […] To compare the results of compounds in the three studies, anti-tumor activity was normalized by dividing the drug-treated tumor volume by the vehicle-treated tumor volume (T/C).

Compound	IC50 [1]	in vitro potency [2]	in vivo efficacy [3]
CC[C@H](C)[C@@H]([C@@H](CC(=O)N1CCC[C@H]1[C@H](OC)[C@@H](C)C(=O)N[C@@H](Cc1ccccc1)C(=O)OC(C)(C)C)OC)N(C)C(=O)[C@@H](NC(=O)C(C)(C)NC)C(C)C [#130, N,2-dimethylalanyl-N-[(3R,4S,5S)-1-{(2S)-2-[(1R,2R)-3-{[(2S)-1-tert-butoxy-1-oxo-3-phenylpropan-2-yl]amino}-1-methoxy-2-methyl-3-oxopropyl]pyrrolidin-1-yl}-3-methoxy-5-methyl-1-oxoheptan-4-yl]-N-methyl-L-valinamide]	0.076 nM	–	–
CC[C@H](C)[C@@H]([C@@H](CC(=O)N1CCC[C@H]1[C@H](OC)[C@@H](C)C(=O)N[C@@H](Cc1ccccc1)C(=O)NC(C)(C)C)OC)N(C)C(=O)[C@@H](NC(=O)C(C)(C)NC)C(C)C [#144, N,2-dimethylalanyl-N-{(1S,2R)-4-{(2S)-2-[(1R,2R)-3-{[(1S)-1-benzyl-2-(tert-butylamino)-2-oxoethyl]amino}-1-methoxy-2-methyl-3-oxopropyl]pyrrolidin-1-yl}-2-methoxy-1-[(1S)-1-methylpropyl]-4-oxobutyl}-N-methyl-L-valinamide]	0.182 nM	–	–
CC[C@H](C)[C@@H]([C@@H](CC(=O)N1CCC[C@H]1[C@H](OC)[C@@H](C)C(=O)N[C@@H](Cc1ccccc1)c1nccs1)OC)N(C)C(=O)[C@@H](NC(=O)[C@]1(C)CCCCN1)C(C)C [#188, (2S)—N-[(2S)-1-{[(3R,4S,5S)-3-methoxy-1-{(2S)-2-[(1R,2R)-1-methoxy-2-methyl-3-oxo-3-{[(1S)-2-phenyl-1-(1,3-thiazol-2-yl)ethyl]amino}propyl]pyrrolidin-1-yl}-5-methyl-1-oxoheptan-4-yl](methyl)amino}-3-methyl-1-oxobutan-2-yl]-2-methylpiperidine-2-carboxamide]	0.283 nM	–	–
CC[C@H](C)[C@@H]([C@@H](CC(=O)N1CCC[C@H]1[C@H](OC)[C@@H](C)C(=O)N[C@@H](Cc1ccccc1)C(=O)Nc1ccc(-c2nc3cc(F)ccc3s2)cc1C)OC)N(C)C(=O)[C@@H](NC(=O)C(C)(C)N)C(C)C [#235]	1.32 nM	–	–
HERCEPTIN®: trastuzumab, monoclonal antibody that interferes with the HER2/neu receptor [reference compound]	–	no significant in vitro potency	no significant in vitro potency or in vivo efficacy
